Results as given in article PMC6579712 (Xenobiotica; the fate of foreign compounds in biological …, 2018).

How the values were obtained:
[1] = IR-MALDESI mass spectrometry imaging of EFV in NHP brain tissue; format: in vivo, rhesus macaques
[2] = ARV concentrations in brain tissue, CSF and plasma by LC-MS/MS, NHPs; conditions: NHP

## O=C1Nc2ccc(Cl)cc2[C@@](C#CC2CC2)(C(F)(F)F)O1 [EFV, efavirenz]
[1]; infected vs uninfected NHPs
  fold lower brain tissue concentration in infected NHPs: 7 fold
[1]; uninfected NHPs, MSI
  fold higher EFV concentration in white matter relative to grey matter: 2 fold
[2]
  fold higher brain tissue concentration than other ARVs: 9- to 36 fold
